Compound activity deposited in PubChem by Broad Institute.
UUG fidelity = yeast start codon fidelity modulation | S. cerevisiae UUG-firefly luciferase reporter, luminescence/redox ratio | activity score, % at 18.7 µM | hit rate 0.13% among 350,000 | AID 602363;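 active means replicate mean at a twofold rise or more, about +100% in these data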;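 further: firefly luciferase made from a UUG start codon reports start codon fidelity; reporter light over untreated wells divided by growth signal over untreated wells; some hits fall short of that in this replicate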
miR122 inh = miR-122 Renilla sensor signal increase in Huh7, primary screen, miR-122 inhibitor project, cell-based, single point, plate reader. 0.3% of 340,000 active. activation (reporter increase), % at 12.5 µM. Huh7 miR-122 Renilla luciferase sensor, 48 h; neutral wells = 0, positive control = 100. AID 602342, 2012;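 active means mean replicate activation score at least 90 and every replicate individually at or above 90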;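 further: higher luciferase means less miR-122 activity so hits act as miR-122 inhibitors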
Env fusion inh = inhibitors of HIV-1 Env-driven cell-cell fusion, primary screen, HeLa-JRFL effector, CEM21 target cells, luciferase; inhibition, % at 12.3 µM; 1.1% of 360,000 active;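 active means mean replicate inhibition score of at least 50 and every replicate individually at or above 50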;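 further: 0% = plate neutral controls and 100% = maraviroc near 300 nM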
PGC1a acetyl inh = inhibitors of PGC1a acetylation signal, primary screen, cell-based, U2OS, AlphaScreen, inhibitor mode. inhibition, % at 15.6 µM. AlphaScreen anti-acetyl-lysine; with virally co-expressed GCN5 acetyltransferase. 0.17% of 350,000 active;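 active means every replicate shows inhibition of at least 40%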;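 further: 0% = neutral control wells and 100% = positive control wells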
Cneo AK release = Cryptococcus neoformans cell lysis inducers, primary screen, AK release luminescence, single concentration | lysis activity, % at 15 µM | C. neoformans lysis, adenylate kinase release luminescence, 4 h; normalised: neutral wells 0, clomiphene wells 100 | AID 651654, 2012 | 0.2% of 360,000 active;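 active means mean lysis activity across replicates of at least 80%, whatever share of replicates individually reach that level; inactive means mean lysis activity below 80%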
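Assay system: log-phase C. neoformans yeast / Quantity: yeast cell density of 5 × 10^6 cells/mL / Medium: fresh YPD growth medium / Compound: single dose / Timing: static 4 h at 37 °C with compound, 1 h detection / Measured by: adenylate kinase release luminescence / Read-out: lysis from increased AK signal / Benchmarks: Clomiphene as positive lysis control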
FN deposit inh = inhibitors of fibronectin matrix deposition, primary screen, AH1F cells, Alexa488-fibronectin fluorescence, plate reader; inhibition, % at 12.6 µM; AID 743247, 2014; 0.086% of 350,000 active; AH1F fibroblasts, overnight;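 active means mean inhibition across replicates of 30% or more, regardless of how many single replicates reach that level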;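 further: positive control wells lacked labelled fibronectin entirely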
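test system = AH1F fibroblasts assembling fluorescent fibronectin matrix | quantity = 10000 AH1F cells per well | buffer or medium = DMEM plus 2% serum, read in PBS | doses = single dose, pinned | incubation = 1 h cell attachment, overnight exposure to compound and label | detection = fluorescence at 485 nm excitation, 525 nm emission | read-out basis = inhibition from reduced deposited-fibronectin fluorescence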
The depositor's hits bear a star; . = not tested or not shown; [ ] = dose if it differs, or a comment. Most compounds without a hit are left out; they make up all but 1.5% or so of the library.

SMILES	UUG fidelity	miR122 inh	Env fusion inh	PGC1a acetyl inh	Cneo AK release	FN deposit inh
CCS(=O)(=O)NCC[C@H]1CC[C@H](NS(=O)(=O)c2cccc(F)c2)[C@@H](CO)O1	-5	.	1[16.7 µM]	10	-4	-3
O=C(Nc1cccc(F)c1)N[C@H]1CC[C@@H](CCNS(=O)(=O)c2cccc(Cl)c2)O[C@@H]1CO	.	.	-10[16.7 µM]	-2	106*	.
O=S(=O)(NCC[C@H]1CC[C@H](NS(=O)(=O)c2cccc(F)c2)[C@H](CO)O1)c1cccc(F)c1	.	.	.	3	.	.
CCS(=O)(=O)NCC[C@@H]1CC[C@@H](NS(=O)(=O)c2cccc(F)c2)[C@@H](CO)O1	4	.	-6[16.7 µM]	0	98*	-1
O=C(C[C@@H]1C=C[C@@H](NC(=O)C2CCOCC2)[C@@H](CO)O1)NCC1CC1	1	-4[16.7 µM]	-4[16.7 µM]	0	1	.
CCOc1ccccc1-c1nc(-c2ccc(C)nc2OC)no1	-11	130*	-230	.	1	7
O=c1[nH]c(=O)n([C@H]2C[C@H](O)[C@@H](CO)O2)cc1F	-2	-9	70*	.	-1	8
Cc1cccc(NC(=O)CN(C)S(=O)(=O)c2ccc(-c3ccc(=O)[nH]n3)s2)c1C	3	-2	-1	-2	-3	-12
O=S(=O)(NCC(Nc1ccccc1)c1ccccc1)c1ccc(Cl)cc1 (stereo not given)	-17	18	98*	-22	-5	-7
COC(=O)c1ccc(OC)c(OC2CCCC2)c1	.	.	6	89*	.	5
COc1ccc(NC(=O)C2CC2)cc1OC1CCCC1	-17	.	.	.	2	.
CC1=C(C(=O)NC2CCCCC2C)C2(CCC(C)CC2)OC1=O (stereo not given)	7	3	-20	.	-1	0
COC(=O)c1ccc(CC2(C)C(=O)Nc3ccc(-c4cccc(C(F)(F)F)c4)cc32)o1 (stereo not given)	2	5	65*	.	0	12
CCC(=O)N1CC2(CCN(C(C)=O)CC2)c2c([nH]c3cc(OC)ccc23)[C@H]1CO	.	.	-8[16.7 µM]	.	.	.
COc1ccccc1-c1nnc(SCC(=O)Nc2ccc(N3CCOCC3)cc2)n1C	.	.	11	.	.	-1
O=C(C[C@@H]1C[C@@H]2c3cc(NC(=O)C4CCOCC4)ccc3O[C@@H]2[C@H](CO)O1)NCc1ccccc1F	-11	-2[16.7 µM]	71*[16.7 µM]	-8	2	3
O=C(C[C@@H]1C[C@H]2c3cc(NC(=O)C4CCOCC4)ccc3O[C@H]2[C@H](CO)O1)NCc1ccccc1F	1	-3[16.7 µM]	87*[16.7 µM]	-7	0	2
O=C(C[C@H]1C[C@H]2c3cc(NC(=O)C4CCOCC4)ccc3O[C@H]2[C@H](CO)O1)NCc1ccccc1F	-15	-2[16.7 µM]	13[16.7 µM]	15	0	3
O=C(C[C@H]1C[C@H]2c3cc(NC(=O)C4CCOCC4)ccc3O[C@H]2[C@@H](CO)O1)NCc1ccccc1F	-10	-1[16.7 µM]	25[16.7 µM]	-12	-9	7
O=S(=O)(c1ccccc1)[C@@]1(c2ccccc2)C[C@@H]2ON=C(c3cccc(Br)c3)[C@@H]2C1	-12	-9	79*	-3	-2	11
O=C(O)[C@]1(S(=O)(=O)c2ccccc2)C[C@@H]2ON=C(c3cccc(Br)c3)[C@@H]2C1	-4	4	-8	-11	-1	-3
CCN(C(=O)CCS(=O)(=O)c1cc2c(cc1Cl)NC(=O)CO2)c1ccccc1	-4	-5	72*	3	-4	-3
Cn1nc(C(F)(F)F)c(-c2ccccc2)c1NC(=O)c1nccnc1C(=O)O	0	.	-58	2	-2	-3
CCCNC(=O)N1[C@H](CNC(C)=O)[C@H](c2ccccc2)[C@@H]1CO	-3	7[16.7 µM]	.	-1	0	.
CN(C)c1ccnc2sc(C(N)=O)c(N)c12	-11	5	.	48*	-1	.
CN(C)c1ccnc2sc(C(=O)c3ccc(Br)cc3)c(N)c12	.	.	-3	.	.	.
Cc1ccc(S(=O)(=O)N(C)C[C@H]2Oc3ccc(NC(=O)c4ccncc4)cc3CC(=O)N([C@H](C)CO)C[C@@H]2C)cc1	-7	-2[16.7 µM]	.	1	1	.
CCN1CCN(Cc2ccc(NC(=O)c3ccc(C)c(NC(=O)c4cncc(-c5cccs5)c4)c3)cc2C(F)(F)F)CC1	5	-22	.	69*	0	.
CCN1CCN(Cc2ccc(NC(=O)c3ccc(C)c(NC(=O)c4nccn4C)c3)cc2C(F)(F)F)CC1	-9	-6	7	-2	0	1
COc1cccc(S(=O)(=O)N(C)C[C@@H]2Oc3cc(C4=CCCCC4)ccc3S(=O)(=O)N([C@@H](C)CO)C[C@@H]2C)c1	.	-8[16.7 µM]	55*[16.7 µM]	-8	-3	.

Quoted from the results shown (three entries):
SMILES	UUG fidelity	miR122 inh	Env fusion inh	PGC1a acetyl inh	Cneo AK release	FN deposit inh
Cc1ccc(S(=O)(=O)N(C)C[C@H]2Oc3ccc(NC(=O)c4ccncc4)cc3CC(=O)N([C@H](C)CO)C[C@@H]2C)cc1	-7	-2[16.7 µM]	.	1	1	.
CCN1CCN(Cc2ccc(NC(=O)c3ccc(C)c(NC(=O)c4cncc(-c5cccs5)c4)c3)cc2C(F)(F)F)CC1	5	-22	.	69*	0	.
CCN1CCN(Cc2ccc(NC(=O)c3ccc(C)c(NC(=O)c4nccn4C)c3)cc2C(F)(F)F)CC1	-9	-6	7	-2	0	1

The list continues.
SMILES	UUG fidelity	miR122 inh	Env fusion inh	PGC1a acetyl inh	Cneo AK release	FN deposit inh
COc1cccc(S(=O)(=O)N(C)C[C@H]2Oc3cc(C4=CCCCC4)ccc3S(=O)(=O)N([C@H](C)CO)C[C@H]2C)c1	.	-14[16.7 µM]	69*[16.7 µM]	-7	.	.
Cc1ccc(NP(=O)(Nc2ccc(C)cc2)Nc2ccc(C)cc2)cc1	-10	49	9	.	1	.
CCC(=O)N1[C@H](CO)[C@H](c2ccccc2)[C@H]1CN(CC)C(=O)c1cccc(F)c1	13	17[16.7 µM]	.	4	96*	.
COc1ccc(C(=O)N2CCN(C)C(C)C2)cc1OC1CCN(C(C)=O)CC1 (stereo not given)	-8	1	15	.	-3	3
O=C(NCc1ccncc1)C12CC3CC(CC(Cl)(C3)C1)C2	-26	.	14	.	1	-8
CC12CC3CC(C)(C1)CC(C(=O)NCc1ccncc1)(C3)C2	6	-1	101*	-12	-6	-4
O=C(O)C1C2C=CC(C2)C1C(=O)Nc1nccs1 (stereo not given)	-12	14	-17	12	-1	3
C[C@H]1CN([C@@H](C)CO)C(=O)c2cc(NC(=O)CCN3CCOCC3)ccc2O[C@@H]1CN(C)Cc1ccc(C(=O)O)cc1	8	3[16.7 µM]	.	-1	103*	.
C[C@@H]1CN([C@@H](C)CO)C(=O)c2cc(NC(=O)CCN3CCOCC3)ccc2O[C@@H]1CN(C)Cc1ccc(C(=O)O)cc1	21	10[16.7 µM]	.	5	95*	.
CCOC(=O)CCNC(=O)CNC(=O)OCc1ccccc1	-13	-1	.	-5	-1	.
O=S(=O)(Nc1ccc2cn[nH]c2c1)c1ccc(Cl)cc1	-8	7	.	-12	3	.
Cc1cc(S(=O)(=O)Nc2ccc3cn[nH]c3c2)c(C)cc1Cl	-18	144*	-9	.	1	1

miR122 inh, what is marked active above
structure,UUG fidelity,miR122 inh,Env fusion inh,PGC1a acetyl inh
CCOc1ccccc1-c1nc(-c2ccc(C)nc2OC)no1,-11,130*,-230,.
Cc1cc(S(=O)(=O)Nc2ccc3cn[nH]c3c2)c(C)cc1Cl,-18,144*,-9,.
